Several values for one entry are separate records, joined by “and”; a condition that tells them apart may be missing. Equal values may be shown once. Only a part is listed here, and it is no random draw. Activity calls are given as the source filed them. Calls come from the whole dose curve; as a rule, active = well fitted activation curve with a large enough effect; inconclusive = small, poorly fitted or top-dose-only effect; inactive = no such curve, though single readings can be large or run the other way.

The experiment in a line: qHTS Assay for NPC1 Promoter Activators.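 Note: reporter is driven by a mutant NPC1 promoter; % of control where 0% means no effect; nearly all actives have a fitted effect of over 60% in size.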 The note with it: Huh7 NPC1 promoter luciferase reporter, 24 h; at 9.22 µM (top of the series) unless noted.
In the case of `Nc1ccc([As](=O)(O)c2ccc([N+](=O)[O-])cc2)cc1`, the activation was inactive: -0.263%.

On to `C(Cc1nn[nH]n1)Cc1nn[nH]n1`, for which the activation is inactive: -0.0827%.

On to `O=C(OC1CN2CCC1CC2)c1cccc(Cl)c1` (stereo not given), for which the activation is inactive: -0.917%.

For `O=[N+]([O-])c1ccc(O)c(/C=N/Nc2ccc([N+](=O)[O-])cc2[N+](=O)[O-])c1`, the activation was inactive: -36.7%.

`CC(=O)NC(SC(=S)N(C)C)C(Cl)(Cl)Cl` (stereo not given): the activation was inactive: -13.5%.

`O=[N+]([O-])c1ncn(CCn2cnc([N+](=O)[O-])n2)n1`: the activation was inactive: -1.12%.

Consider `O=[As](O)(c1ccccc1)c1ccc(O)cc1`, for which the activation is inactive: 2.43%.

On to `C[C@H]1OP(=O)(Oc2ccccc2)[C@H](O)[C@H](O)[C@H]1N=[N+]=[N-]` (stereo not given in full), for which the activation is inactive: -1.2%.

As for `O=P(Nc1nc2ccccc2s1)(c1ccccc1)c1ccccc1`, the activation is inactive: -0.694%.

In the case of `O=P(Nc1ccccn1)(c1ccc(Br)cc1)c1ccc(Br)cc1`, the activation is inactive: -5.61%.

Turning to `CN(C)C1(CNC(=O)c2ccc(Cl)c(S(N)(=O)=O)c2)CCCCC1`, the activation is inactive: -6.39%.

For the compound `O=[N+]([O-])c1cccc(NC2=NCC(CBr)S2)c1` (stereo not given), the activation was inactive: -5.04%.

Turning to `O=C(O)CNc1ccc([As](=O)(O)O)cc1`, the activation is inactive: 0.324%.

Turning to `CC(C)(C)C(=O)NC(Sc1ccncn1)C(Cl)(Cl)Cl` (stereo not given), the activation is inactive: -5.95%.

Consider `O=[N+]([O-])c1ncn(CCn2ncnc2[N+](=O)[O-])n1`, for which the activation was inactive: -2.64%.

`O=C(Nc1cc([As](=O)(O)O)ccc1O)c1ccccc1`: the activation was inactive: -0.198%.

Regarding `CN(C)C(=O)OCCc1n(C)cc[n+]1C`, the activation is inactive: 0.77%.

`CC(C)=N/N=C(\N)N[N+](=O)[O-]`: the activation was inactive: 0.0497%.

In the case of `CC1CCN(C(=O)Oc2c(Cl)cc(Cl)c3cccnc23)CC1`, the activation is inactive: 2.24%.

In the case of `C[N+]1=C2C=CC=CC=C2SC12C([N+](=O)[O-])=CC([N+](=O)[O-])=C[C-]2[N+](=O)[O-]` (stereo not given), the activation is inactive: -6.72%.

For `Nc1ccc([As](=O)(O)c2ccc(N)cc2)cc1`, the activation is inactive: 0.546%.

Consider `CCN(/C(=N/P(=O)(N1CCOCC1)N1CCOCC1)N1CCOCC1)c1ccc(OC)cc1`, for which the activation is inactive: -5.36%.

Take `O=[N+]([O-])c1cccc2n[nH]nc12`: the activation is inactive: -0.219%.

Consider `CC(=O)N1C2C3N(C(C)=O)C1C1N(C(C)=O)C(C(N1C(C)=O)N3C(C)=O)N2C(C)=O`, for which the activation was inactive: 0.856%.

Take `CCc1nc2c(n1)c1c(non1O)c1c2no[n+]1[O-]`: the activation was inactive: -8.67%.

`O=[N+]([O-])c1cc([N+](=O)[O-])c(CCNc2ccccc2)c([N+](=O)[O-])c1`: the activation is inactive: 0.157%.

Take `Cc1ccc(NP(=O)(Oc2ccccc2)Oc2ccccc2)nc1`: the activation is inactive: 1.45%.

Consider `COc1ccc(C2=NCC(CBr)S2)cc1` (stereo not given), for which the activation was inactive: -20.4%.

With `CC(C)CC(=O)NC(Sc1ccc(Cl)cc1)C(Cl)(Cl)Cl` (stereo not given), the activation was inactive: 4.32%.

With `Nc1cc(N)c2nonc2c1[N+](=O)[O-]`, the activation is inactive: 0.174%.

With `Cc1c2non([O-])c-2c(C)[n+](=O)[n+]1[O-]`, the activation is inactive: 4.8%.

Regarding `O=C(NC(Sc1ccncn1)C(Cl)(Cl)Cl)c1ccccc1` (stereo not given), the activation was inactive: -4.14%.

For `Oc1ccccc1CNc1ccccn1`, the activation is inactive: 18.9%.

For the compound `Cc1ccc(OP(=O)(Nc2nccs2)Oc2ccc(C)cc2)cc1`, the activation was inactive: -2.97%.

With `COc1ccccc1OP(=O)(Nc1ccc(C)cn1)Oc1ccccc1OC`, the activation was inactive: -3.02%.

In the case of `Clc1ccc(Cl)c(NC2=NCC(CBr)S2)c1` (stereo not given), the activation is inactive: -2.61%.

`CN1CCCC(OC(=O)C(c2ccccc2)c2ccccc2)C1` (stereo not given): the activation was inactive: -2.64%.

With `NC(=O)c1cc([N+](=O)[O-])cc([N+](=O)[O-])c1N`, the activation is inactive: -6.1%.

Take `Cc1ccc(N/C(=N/P(=O)(N2CCOCC2)N2CCOCC2)N2CCOCC2)cc1`: the activation was inactive: -3.34%.

On to `CN(C(=O)Cc1ccc(Cl)c(Cl)c1)[C@H]1CCCC[C@H]1N1CCCC1`, for which the activation was inactive: 6.13%.

Consider `CCN(N=Nc1nonc1N)c1nonc1N`, for which the activation was inactive: -1.14%.

In the case of `Nc1cccc2ccc([As](=O)(O)O)cc12`, the activation was inactive: -6.6%.

Take `O=[N+]([O-])c1cc([N+](=O)[O-])c(CCN2CCOCC2)c([N+](=O)[O-])c1`: the activation was inactive: -0.097%.

As to `Cc1ccc(NP(=O)(Oc2ccccc2F)Oc2ccccc2F)nc1`, the activation was inactive: 1.48%.

For `CN(C(=O)Cc1ccc(Cl)c(Cl)c1)[C@H]1CCCC[C@@H]1N1CCCC1`, the activation is inactive: -9.31% [at 46.1 µM] and inactive: 0.879% [at 46.1 µM].

In the case of `CCOP(=O)(Nc1ccccc1)OCC`, the activation is inactive: 1.01% and inactive: -0.135%.

In the case of `Cc1cc(SC(NC(=O)c2ccc(F)cc2)C(Cl)(Cl)Cl)ncn1` (stereo not given), the activation is inactive: 1.44%.

Consider `O=C(O)c1ccccc1[As](=O)(O)O`, for which the activation is inactive: -6.21%.

For the compound `CC(=O)Nc1ccc([As](=O)(O)O)cc1`, the activation was inactive: -1.67%.

On to `O=P(Nc1nc2ccc(Cl)cc2s1)(c1ccccc1)c1ccccc1`, for which the activation is inactive: -2.77%.

For the origin of these results see PubChem BioAssay AID485313 (National Center for Advancing Translational Sciences (NCATS), 2010).
